Only a part is listed here, and it is no random draw. Some salts and complexes are drawn in separate pieces, as the source files them; their charges need not balance. Calls of active or inactive are those of the source.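 Rule for the calls: active = normalized GFP-positive differentiation at or above the plate's own cutoff, the solvent-only control mean plus 3 SD; inconclusive = no clear call, values can overlap the other calls; inactive = the rest.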

This experiment can be described thus: induction of myeloid progenitor differentiation, primary screen, cell-based, flow cytometry, MLPCN library (AID 624256). The note with it: ER-HoxA9 myeloid progenitors, lysozyme-GFP differentiation, at 10 µM. A general note: A flow cytometer gives signals particle by particle.
For `CP(=O)(OCCOc1ccccc1)OCCOc1ccccc1`, the call was inactive. As for `Nc1cccc2ccc([As](=O)(O)O)cc12`, the entry is “inactive”. As for `CCN(N=Nc1nonc1N)c1nonc1N`, the entry is “inactive”; as for `Cc1ccc(N/C(=N/P(=O)(N2CCOCC2)N2CCOCC2)N2CCOCC2)cc1`, “inactive”. In the case of `CN(C(=O)Cc1ccc(Cl)c(Cl)c1)[C@H]1CCCC[C@H]1N1CCCC1` it was “inactive”; in that of `COc1ccccc1OP(C)(=O)Nc1ccc(Br)cc1` (stereo unspecified), “inactive”; in that of `NC(=O)c1cc([N+](=O)[O-])cc([N+](=O)[O-])c1N`, “inactive”.

Regarding `CN1CCCC(OC(=O)C(c2ccccc2)c2ccccc2)C1` (stereo unspecified), the outcome was inactive. For the compound `Clc1ccc(Cl)c(NC2=NCC(CBr)S2)c1` (stereo unspecified), the call was inactive. As for `CN(C)CCOC(=O)C(O)(c1ccccc1)C1CCCC1` (stereo unspecified), the entry is “inactive”. As for `Cc1ccc(OP(=O)(Nc2nccs2)Oc2ccc(C)cc2)cc1`, the entry is “inactive”; as for `COc1ccccc1OP(=O)(Nc1ccc(C)cn1)Oc1ccccc1OC`, “inactive”; as for `COc1ccc(OP(C)(=O)Nc2ccccn2)cc1` (stereo unspecified), “inactive”. As for `O=C(NC(Sc1ccncn1)C(Cl)(Cl)Cl)c1ccccc1` (stereo unspecified), the entry is “inactive”.

In the case of `Oc1ccccc1CNc1ccccn1`, the compound was called inactive. In the case of `Cc1c(NP(C)(=O)Oc2ccc(C(C)C)cc2)c(=O)n(-c2ccccc2)n1C` (stereo unspecified) it was “inactive”. As for `Nc1cc(N)c2nonc2c1[N+](=O)[O-]`, the entry is “inactive”.

Take `CC(C)CC(=O)NC(Sc1ccc(Cl)cc1)C(Cl)(Cl)Cl` (stereo unspecified): the compound was classed as inactive. On to `O=[N+]([O-])c1cc([N+](=O)[O-])c(Nc2ccccn2)c([N+](=O)[O-])c1`, for which the call was inactive.

With `O=[N+]([O-])C1C(O)C(O)C([N+](=O)[O-])C(O)C1O` (stereo unspecified), the compound was classed as inactive. On to `COc1ccccc1OP(C)(=O)Nc1ccc(C)cc1C` (stereo unspecified), for which the outcome was inactive.

Regarding `CP(=O)(Nc1ccccn1)Oc1ccccc1` (stereo unspecified), the result was inactive.

As for `CCOc1ccc(C2=NCC(CBr)S2)cc1` (stereo unspecified), the result was inactive.

Take `O=[N+]([O-])c1cc([N+](=O)[O-])c(Nc2ccc(Cl)cc2)c([N+](=O)[O-])c1`: the outcome was inactive. Consider `O=P1(Nc2nc3ccc(Cl)cc3s2)COc2ccccc2O1` (stereo unspecified), for which the result was inactive.

For the compound `CC(C)c1ccc(OP(C)(=O)Nc2ccc(SC(F)(F)F)cc2)cc1` (stereo unspecified), the compound was classed as inactive. As for `CC(C)(C)C(=O)NC(Sc1ccccc1)C(Cl)(Cl)Cl` (stereo unspecified), the entry is “inactive”.

Take `CP(=O)(Nc1ccccc1F)Oc1ccccc1` (stereo unspecified): the compound was classed as inactive. As for `CCc1cc(O)c([N+](=O)[O-])c(C)c1[N+](=O)[O-]`, the entry is “inactive”. Take `C[C@H]1OP(=O)(Oc2ccccc2)C[C@@H]2O[C@@H]21` (stereo partly specified): the outcome was inactive.

In the case of `C[C@@H]1C=CCP(=O)(Oc2ccccc2)O1` (stereo partly specified), the call was inactive. In the case of `Cc1ccccc1CN(C)C(=O)COC(=O)C(O)(c1ccccc1)c1ccccc1` it was “inactive”. As for `O=C(OCCN1CCN(CCOCc2ccccc2)CC1)C(O)(c1ccccc1)c1ccccc1`, the entry is “inactive”. As for `COC(=O)C1(C)COP(=O)(NCc2ccccc2)OC1` (stereo unspecified), the entry is “inactive”; as for `O=C(OC1CN2CCC1CC2)c1ccc([N+](=O)[O-])cc1` (stereo unspecified), “inactive”; as for `CC(=O)c1ccc(N2CC2c2ccncc2)cc1` (stereo unspecified), “inactive”. For the compound `CC(=O)Nc1ccc(Oc2c([N+](=O)[O-])cc([N+](=O)[O-])cc2[N+](=O)[O-])cc1`, the compound was called inactive. In the case of `CC(=O)Nc1ccc([As](=O)(O)O)c(O)c1` it was “inactive”; in that of `COc1ccc2c(c1O)-c1c(O)c(OC)cc3c1[C@H](C2)[N+](C)(C)CC3.O=[N+]([O-])c1cc([N+](=O)[O-])c([O-])c([N+](=O)[O-])c1[O-]`, “inactive”; in that of `Cc1ccc(NP(=O)(Oc2cccc(C)c2)Oc2cccc(C)c2)nc1`, “inactive”. As for `CCN(CC)CCCNc1ccccc1[N+](=O)[O-].O=[N+]([O-])c1cc([N+](=O)[O-])c(O)c([N+](=O)[O-])c1`, the entry is “inactive”; as for `c1ccc(-c2nn[nH]n2)c(-c2nn[nH]n2)c1`, “inactive”. As for `CCNC(=S)/N=C(\N)N[N+](=O)[O-]`, the entry is “inactive”. On to `O=C(NC1CCS(=O)(=O)C1)NP(=S)(Oc1ccccc1)Oc1ccccc1` (stereo unspecified), for which the compound was classed as inactive. Consider `COc1ccc(OP(C)(=O)Nc2ccc(SC(F)(F)F)cc2)cc1` (stereo unspecified), for which the compound was called inactive.

Take `CCOC(=O)c1ccc(NP(C)(=O)Oc2ccc(F)cc2)cc1` (stereo unspecified): the compound was classed as inactive.

With `O=P1(N(CCCl)CCCl)OCCC2CCCCN21` (stereo unspecified), the result was inactive.

Take `CCN(CC)CCCOC(=O)C(O)(c1ccccc1)C1CCCCC1` (stereo unspecified): the compound was called inactive. As for `CCC(=O)N1C2C3N(C(=O)CC)C1C1N(C(=O)CC)C(C(N1C(=O)CC)N3C(=O)CC)N2C(=O)CC`, the entry is “inactive”; as for `O=C(OC1CN2CCC1CC2)c1ccccc1` (stereo unspecified), “inactive”. In the case of `CC(=O)NC(SC(=S)N(CC(C)C)CC(C)C)C(Cl)(Cl)Cl` (stereo unspecified) it was “inactive”; in that of `Cc1ccc(OP(=O)(Nc2ccccn2)Oc2ccc(C)cc2)cc1`, “inactive”; in that of `Cc1c([N+](=O)[O-])cc([N+](=O)[O-])c(Br)c1[N+](=O)[O-]`, “inactive”. In the case of `COC(=O)c1cc2c(s1)N=C(c1ccccc1)N(C)P2(=O)N1CCOCC1` (stereo unspecified) it was “inactive”; in that of `O=[N+]([O-])c1cc([N+](=O)[O-])c(OC2CCCCC2O)c([N+](=O)[O-])c1` (stereo unspecified), “inactive”. `CCCCCOc1ccc(NP(C)(=O)Oc2ccc(Cl)cc2Cl)cc1` (stereo unspecified): the result was inactive. Consider `CN(C)C(=O)Oc1noc2ccccc12`, for which the compound was called inactive.

`CC(NC(=O)COC(=O)C(O)(c1ccccc1)c1ccccc1)c1ccccc1` (stereo unspecified): the result was inactive. In the case of `Cc1ccccc1OP(=O)(Nc1ccccn1)Oc1ccccc1C` it was “inactive”; in that of `CP(=O)(Nc1ccccc1)Oc1ccc(F)cc1` (stereo unspecified), “inactive”; in that of `O=P(Nc1ccccn1)(c1ccc(Br)cc1)c1ccc(Br)cc1`, “inactive”. `CN(C)C1(CNC(=O)c2ccc(Cl)c(S(N)(=O)=O)c2)CCCCC1`: the outcome was inactive.

For the compound `COc1ccc(N)c([N+](=O)[O-])c1[N+](=O)[O-]`, the outcome was inactive. As for `COc1ccc(OP(C)(=O)Nc2cccc(Br)c2)cc1` (stereo unspecified), the entry is “inactive”; as for `COc1ccc(NP(C)(=O)Oc2ccccc2OC)cc1` (stereo unspecified), “inactive”; as for `C[C@H]1OP(=O)(Oc2ccccc2)[C@H](O)[C@H](O)[C@H]1N=[N+]=[N-]` (stereo partly specified), “inactive”. In the case of `CN(C)CCOC(=O)C(O)(c1ccccc1)C1CCCCC1` (stereo unspecified) it was “inactive”; in that of `O=P(Nc1nc2ccccc2s1)(c1ccccc1)c1ccccc1`, “inactive”. In the case of `Cc1cc(-c2cccc3ccccc23)c(C)cn1.O=[N+]([O-])c1cc([N+](=O)[O-])c(O)c([N+](=O)[O-])c1` it was “inactive”; in that of `O=[As](O)(c1ccccc1)c1ccc(O)cc1`, “inactive”. Take `O=[N+]([O-])c1ccc(O)c(/C=N/Nc2ccc([N+](=O)[O-])cc2[N+](=O)[O-])c1`: the compound was classed as inactive.

`O=[N+]([O-])c1ccc(OP2(=O)COCCO2)cc1` (stereo unspecified): the compound was classed as inactive.

Turning to `CC(=O)NC(SC(=S)N(C)C)C(Cl)(Cl)Cl` (stereo unspecified), the outcome was inactive. In the case of `O=[N+]([O-])c1ncn(CCn2cnc([N+](=O)[O-])n2)n1` it was “inactive”.

Regarding `O=C(OC1CN2CCC1CC2)c1cccc(Cl)c1` (stereo unspecified), the outcome was inactive. `C(Cc1nn[nH]n1)Cc1nn[nH]n1`: the call was inactive. In the case of `Nc1ccc([As](=O)(O)c2ccc([N+](=O)[O-])cc2)cc1` it was “inactive”. As for `Cc1c(C(c2ccc3c(c2)OCO3)c2c(C)n(C)n(-c3ccccc3)c2=O)c(=O)n(-c2ccccc2)n1C.O=[N+]([O-])c1cc([N+](=O)[O-])c(O)c([N+](=O)[O-])c1`, the entry is “inactive”; as for `CC(C)C(=O)NC(Sc1ccccc1)C(Cl)(Cl)Cl` (stereo unspecified), “inactive”; as for `O=P(Nc1nccs1)(c1ccccc1)c1ccccc1`, “inactive”. For `CP(=O)(Nc1ccc(SC(F)(F)F)cc1)Oc1ccc(F)cc1` (stereo unspecified), the compound was called inactive. In the case of `c1nnnn1CCn1cnnn1` it was “inactive”; in that of `CCOP(C)(=S)SCC(=O)NC(C)(CC)C(=O)O` (stereo unspecified), “inactive”; in that of `CP(=O)(Nc1ccc2c(c1)OCCO2)Oc1ccccc1` (stereo unspecified), “inactive”.

In the case of `O=[N+]([O-])c1cc([N+](=O)[O-])c(C(F)(F)F)c([N+](=O)[O-])c1O`, the result was inactive. In the case of `Cc1ccccc1NP(C)(=O)Nc1ccccc1C` it was “inactive”.

These data come from PubChem BioAssay AID624256 (NMMLSC, 2012).
